Assay results: ChEMBL document CHEMBL1125782, “Structure/activity studies related to 2-(3,4-dichlorophenyl)-N-methyl-N-[2-(1-pyrrolidinyl)-1-substituted- ethyl]acetamides: a novel series of potent and selective kappa-opioid agonists” (1991)

These molecules were tested on Mus musculus (assay: Antinociceptive activity in acetic acid induced abdominal constriction assay after sc administration and abolished by naloxone administered at 3 mg/kg sc in mice). Details: route subcutaneous, Abdomen.
`CC(C)[C@@H](CN(C)Cc1ccccc1)N(C)C(=O)Cc1ccc(Cl)c(Cl)c1` was tested, and the ED50 was > 10 mg/kg. `CC(C)[C@@H](CN1CCCC1)N(C)C(=O)Cc1ccccc1` was tested, and the ED50 was 10 mg/kg. In the case of `CC(C)[C@@H](CN1CCCC1)N(C)C(=O)Cc1ccc(C#N)cc1`, the ED50 is reported as 0.84 mg/kg. `CCN(CC)C[C@H](C(C)C)N(C)C(=O)Cc1ccc(Cl)c(Cl)c1` was tested, and the ED50 was 1.52 mg/kg. `CC(C)[C@@H](CN1CCCC1)N(C)C(=O)Cc1cccc(Cl)c1` gave an ED50 of 0.33 mg/kg. For `CC(C)[C@@H](CN1CCCC1)N(C)C(=O)Cc1ccc(C(F)(F)F)cc1`, the ED50 was 0.07 mg/kg. `CNC[C@H](C(C)C)N(C)C(=O)Cc1ccc(Cl)c(Cl)c1` was tested, and the ED50 was > 10 mg/kg. `CC(C)[C@@H](CN1CCCC1)N(C)C(=O)Cc1ccc(Cl)cc1` was tested, and the ED50 was 0.09 mg/kg. With `CC(C)[C@@H](CN1CCCC1)NC(=O)Cc1ccccc1` the ED50 was 1.3 mg/kg. Molecule `CC(C)[C@@H](CN1CCCC1)N(C)C(=O)COc1ccccc1` has an ED50 of 0.13 mg/kg. With `COc1ccc(CC(=O)N(C)[C@H](CN2CCCC2)C(C)C)cc1` the ED50 was 3.3 mg/kg. `CC(C)[C@@H](CN(C)C)N(C)C(=O)Cc1ccc(Cl)c(Cl)c1` was tested, and the ED50 was 0.16 mg/kg. In the case of `CCCN(C(=O)Cc1ccccc1)[C@H](CN1CCCC1)C(C)C`, the ED50 is reported as > 10 mg/kg. For `CCCN(C)C[C@H](C(C)C)N(C)C(=O)Cc1ccc(Cl)c(Cl)c1`, the ED50 was 0.58 mg/kg. Molecule `CCN(C(=O)Cc1ccccc1)[C@H](CN1CCCC1)C(C)C` has an ED50 of 0.32 mg/kg. `CC(C)[C@@H](CN1CCCC1)N(C)C(=O)CSc1ccccc1` was tested, and the ED50 was 0.27 mg/kg. Molecule `CC(C)[C@@H](CN(C)C(C)C)N(C)C(=O)Cc1ccc(Cl)c(Cl)c1` has an ED50 of 0.065 mg/kg. `CC(C)[C@@H](CN1CCCC1)N(C)C(=O)Cc1ccc([N+](=O)[O-])cc1` was tested, and the ED50 was 0.3 mg/kg. Work on `CC(C)[C@@H](CN1CCCC1)N(C)C(=O)Cc1ccc(F)c(F)c1` yielded an ED50 of 0.23 mg/kg.
